The numbers were not newly measured in paper PMC9993015, which cites them from elsewhere.

In the series the target is histone H3 (Homo sapiens) (UniProt P68431). The settings on record: cited from earlier work.

As a reminder, the Kd is the concentration at which binding is half-saturated. For FMRP (from UniProt Q06787), the Kd was 135 nM.
